Chains of the proteins cited; added tags and fusions are not shown.
UniProt P28223, whole entry: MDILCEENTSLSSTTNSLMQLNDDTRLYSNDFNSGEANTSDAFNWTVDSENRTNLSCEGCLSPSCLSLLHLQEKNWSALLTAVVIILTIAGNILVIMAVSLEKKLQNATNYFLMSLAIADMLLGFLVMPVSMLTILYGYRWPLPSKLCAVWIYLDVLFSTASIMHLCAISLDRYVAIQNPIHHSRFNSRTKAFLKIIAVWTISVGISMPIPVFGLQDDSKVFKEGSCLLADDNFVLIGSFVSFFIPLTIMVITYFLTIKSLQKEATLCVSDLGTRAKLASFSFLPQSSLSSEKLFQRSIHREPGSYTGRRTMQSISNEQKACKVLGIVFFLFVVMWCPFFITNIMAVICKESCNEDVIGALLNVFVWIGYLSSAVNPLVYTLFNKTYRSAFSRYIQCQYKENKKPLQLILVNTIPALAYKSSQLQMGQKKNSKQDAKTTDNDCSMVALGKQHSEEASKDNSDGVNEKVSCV

According to ChEMBL document CHEMBL1156026, “Design and synthesis of pyridazinone-based 5-HT(2C) agonists” (Bioorg Med Chem Lett, 2009):

Molecular target: 5-hydroxytryptamine receptor 2A (Homo sapiens, UniProt P28223)
Assay: Agonist activity at human recombinant 5HT2A receptor expressed in Swiss mouse 3T3 cells assessed as induction of calcium mobilization by FLIPR assay
Assay type: functional, cell-based

`Clc1cccc(N2CCNCC2)c1` [CHLOROPHENYLPIPERAZINE] showed an EC50 of 167 nM.
